Experimental data from paper PMC5908791.

Biological target: SOCS1/ElonginB/ElonginC ternary complex (human SOCS1 residues 53-211) (human) (UniProt O15524)
Assay: ITC; 10-40 uM SOCS1/ElonginBC in the cell, 80-400 uM peptide injected; 25 °C; 20 mM Tris-HCl pH 7.5, 150 mM NaCl, 2 mM beta-mercaptoethanol; Microcal ITC200

Row | Substance | Kd
1 | JAK1 ALP ala pY+1 (peptide) | 159 nM
2 | JAK1 ALP ala pY+2 (peptide) | 266 nM
3 | JAK1 ALP ala pY+3 (peptide) | 1400 nM
4 | JAK1 ALP ala pY+4 (peptide) | 214 nM
5 | JAK1 ALP ala pY+5 (peptide) | 1120 nM
6 | JAK1 ALP ala pY+6 (peptide) | 488 nM
7 | JAK1 ALP ala pY+7 (peptide) | 323 nM
8 | JAK1 ALP ala pY+8 (peptide) | 232 nM
9 | JAK1 ALP ala pY-1 (peptide) | 391 nM
10 | JAK1 ALP ala pY-2 (peptide) | 383 nM
11 | JAK1 ALP ala pY-3 (peptide) | 253 nM
12 | JAK1 ALP ala pY-4 (peptide) | 189 nM
13 | JAK1 ALP ala pY-5 (peptide) | 371 nM
14 | JAK1 ALP ala pY-6 (peptide) | 140 nM
15 | JAK1 ALP ala pY-7 (peptide) | 116 nM
